# Cyclic peptide permeability, from CycPeptMPDB

Values of Hickey et al. 2016, doi:10.1021/acs.jmedchem.6b00222, as listed in CycPeptMPDB.

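The data file gives no further conditions (lipid, pH, time, direction or concentration), and values from different papers need not be comparable. Other peptides of the study may be missing here. Peptides that the database sets to -10, its floor, are left out.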

PAMPA is the parallel artificial membrane permeability assay, which has no cells and reads passive diffusion. P is given in units of 10^-6 cm/s (from log10 values with two decimals); larger means faster passage.

For CC(C)C[C@@H]1NC(=O)[C@H](CC(C)C)NC(=O)[C@@H]2CCCN2[C@H](C(=O)NC(C)(C)C)[C@H](C)NC(=O)[C@H](Cc2ccccc2)NC(=O)CNC1=O the data give PAMPA 3.2 × 10^-6 cm/s.
For CC(C)C[C@H]1NC(=O)[C@H](CO)NC(=O)[C@@H]2CCCN2C(=O)[C@H](C)NC(=O)[C@H](Cc2ccccc2)NC(=O)[C@H](Cc2ccccc2)NC1=O the data give PAMPA 0.063 × 10^-6 cm/s.
For CC(C)C[C@@H]1NC(=O)[C@H](CC(C)C)NC(=O)[C@@H]2CCCN2[C@H](C(=O)NC(C)(C)C)[C@H](CSc2ccccc2)NC(=O)[C@H](Cc2ccccc2)NC(=O)CNC1=O the data give PAMPA 1.6 × 10^-6 cm/s.
For CC(C)C[C@H]1NC(=O)[C@H](CO)NC(=O)[C@@H]2CCCN2[C@H](C(=O)NC(C)(C)C)[C@H](C)NC(=O)[C@H](Cc2ccccc2)NC(=O)[C@H](Cc2ccccc2)NC1=O the data give PAMPA 2.5 × 10^-6 cm/s.
For CC(C)C[C@@H]1NC(=O)[C@@H]2CCCN2[C@H](C(=O)NC(C)(C)C)[C@H](CSc2ccccc2)NC(=O)[C@H](Cc2ccccc2)N(C)C(=O)CN(C)C(=O)[C@H](CC(C)C)NC1=O the data give PAMPA 1.3 × 10^-6 cm/s.
For CC(C)C[C@@H]1NC(=O)[C@H]([C@@H](C)O)NC(=O)[C@@H]2CCCN2[C@H](C(=O)NC(C)(C)C)[C@H](C)NC(=O)[C@H](Cc2ccccc2)NC(=O)[C@H](Cc2ccc(O)cc2)NC1=O the data give PAMPA 0.016 × 10^-6 cm/s.
For CC(C)C[C@@H]1C(=O)N[C@H](Cc2ccc(O)cc2)C(=O)N(C)[C@@H](Cc2ccccc2)C(=O)N[C@@H](C)[C@@H](C(=O)NC(C)(C)C)N2CCC[C@H]2C(=O)N[C@@H]([C@@H](C)O)C(=O)N1C the data give PAMPA 4 × 10^-6 cm/s.
For CC(C)C[C@H]1NC(=O)[C@H](CO)NC(=O)[C@@H]2CCCN2[C@H](C(=O)NC(C)(C)C)[C@H](CSc2ccccc2)NC(=O)[C@H](Cc2ccccc2)NC(=O)[C@H](Cc2ccccc2)NC1=O the data give PAMPA 2.5 × 10^-6 cm/s.
For CC(C)C[C@@H]1NC(=O)[C@H](CC(C)C)NC(=O)[C@@H]2CCCN2[C@H](C(=O)NC(C)(C)C)[C@H](CSc2ccccc2)NC(=O)[C@H](Cc2ccccc2)N(C)C(=O)CNC1=O the data give PAMPA 0.79 × 10^-6 cm/s.
For CC(C)C[C@@H]1C(=O)N[C@@H](Cc2ccc(O)cc2)C(=O)N[C@@H](Cc2ccccc2)C(=O)N[C@@H](C)[C@@H](C(=O)NC(C)(C)C)N2CCC[C@H]2C(=O)N[C@@H]([C@@H](C)O)C(=O)N1C the data give PAMPA 0.004 × 10^-6 cm/s.
For CC(C)C[C@H]1C(=O)N[C@@H](Cc2ccc(O)cc2)C(=O)N[C@@H](Cc2ccccc2)C(=O)N[C@@H](C)[C@@H](C(=O)NC(C)(C)C)N2CCC[C@H]2C(=O)N[C@@H]([C@@H](C)O)C(=O)N1C the data give PAMPA 0.01 × 10^-6 cm/s.
For CC(C)C[C@@H]1C(=O)N[C@H](Cc2ccc(O)cc2)C(=O)N[C@@H](Cc2ccccc2)C(=O)N[C@@H](C)[C@@H](C(=O)NC(C)(C)C)N2CCC[C@H]2C(=O)N[C@@H]([C@@H](C)O)C(=O)N1C the data give PAMPA 0.79 × 10^-6 cm/s.
For CC(C)C[C@H]1NC(=O)[C@H]([C@@H](C)O)NC(=O)[C@@H]2CCCN2[C@H](C(=O)NC(C)(C)C)[C@H](C)NC(=O)[C@H](Cc2ccccc2)NC(=O)[C@H](Cc2ccc(O)cc2)NC1=O the data give PAMPA 0.0016 × 10^-6 cm/s.
For CC(C)C[C@H]1NC(=O)[C@H](COC(C)(C)C)NC(=O)[C@@H]2CCCN2[C@H](C(=O)NC(C)(C)C)[C@@H]2CN2C(=O)[C@H](Cc2ccccc2)NC(=O)[C@H](Cc2ccccc2)NC1=O the data give PAMPA 5 × 10^-6 cm/s.
For CC(C)C[C@@H]1NC(=O)[C@@H]2CCCN2[C@H](C(=O)NC(C)(C)C)[C@H](CSc2ccccc2)NC(=O)[C@H](Cc2ccccc2)NC(=O)CN(C)C(=O)[C@H](CC(C)C)NC1=O the data give PAMPA 2.5 × 10^-6 cm/s.
For CC(C)C[C@@H]1NC(=O)[C@H](CO)NC(=O)[C@@H]2CCCN2[C@H](C(=O)NC(C)(C)C)[C@H](C)NC(=O)[C@H](Cc2ccccc2)NC(=O)[C@H](Cc2ccc(O)cc2)NC1=O the data give PAMPA 0.00079 × 10^-6 cm/s.

A selection of 2 entries from above:

CC(C)C[C@H]1NC(=O)[C@H](CO)NC(=O)[C@@H]2CCCN2C(=O)[C@H](C)NC(=O)[C@H](Cc2ccccc2)NC(=O)[C@H](Cc2ccccc2)NC1=O has PAMPA 0.063 × 10^-6 cm/s.
CC(C)C[C@@H]1C(=O)N[C@@H](Cc2ccc(O)cc2)C(=O)N[C@@H](Cc2ccccc2)C(=O)N[C@@H](C)[C@@H](C(=O)NC(C)(C)C)N2CCC[C@H]2C(=O)N[C@@H]([C@@H](C)O)C(=O)N1C has PAMPA 0.004 × 10^-6 cm/s.